Reference: PubChem BioAssay AID588493 (Sanford-Burnham Center for Chemical Genomics, 2011)
The list shows a part of the results, in another mix than the full data. Activity calls are given as the source filed them.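 How the source made its calls: active means inhibition at 20 µM, scaled to each plate's controls, above about 33% (limit read from the data); inactive means the rest.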

Amino acid sequences for entries named in this document (tags omitted).
UniProt O00487, whole entry: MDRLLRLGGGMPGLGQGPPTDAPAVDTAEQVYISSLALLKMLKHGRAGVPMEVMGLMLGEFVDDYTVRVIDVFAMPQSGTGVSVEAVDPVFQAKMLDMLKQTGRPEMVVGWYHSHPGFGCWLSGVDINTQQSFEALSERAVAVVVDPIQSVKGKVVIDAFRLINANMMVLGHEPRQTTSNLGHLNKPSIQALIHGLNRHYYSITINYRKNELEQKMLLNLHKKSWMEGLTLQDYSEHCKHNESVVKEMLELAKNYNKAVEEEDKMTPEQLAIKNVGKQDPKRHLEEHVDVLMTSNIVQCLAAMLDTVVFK

Biological target: 26S proteasome non-ATPase regulatory subunit 14 (Homo sapiens) (UniProt O00487)
Assay: Rpn11 (PSMD14) deubiquitinase inhibitors, primary screen, biochemical, fluorescence polarization, uHTS (AID 588493)
Settings: human 26S proteasome, Ub4-pepOG fluorescence polarization; at 20 µM; stronger effect = higher value; 20S core pre-blocked with epoxomicin

| SMILES | inhibition |
| --- | --- |
| CC(C)(C)n1nnnc1C(c1ccccc1OC(F)(F)F)N1CCC(n2c(=O)[nH]c3ccccc32)CC1 (configuration not stated) | inactive: 4.1% |
| O=C(NCC1(N2CCCCC2)CCCCC1)c1ccc(OC(F)F)cc1 | inactive: 6.5% |
| CCN1CCC(Nc2ccc(Cl)cc2)CC1 | inactive: 0.1% |
| N#CC1(Nc2ccccc2)CCN(CCc2ccccc2)CC1 | inactive: 2% |
| O=c1[nH]c2ccccc2n1C1CCN(C(c2ccccc2OC(F)(F)F)c2nnnn2C2CCCC2)CC1 (configuration not stated) | inactive: 8.1% |
| O=C(NCC1(N2CCCCC2)CCCCC1)c1cccc([N+](=O)[O-])c1 | inactive: 0.8% |
| CSc1ccc(C(=O)NCC2(N3CCOCC3)CCCCC2)cc1 | inactive: 2.9% |
| O=C(NCC1(N2CCCCC2)CCCCC1)c1cccc(C(F)(F)F)c1 | inactive: 5.2% |
| COc1cc(C(=O)NCC2(N3CCCCC3)CCCCC2)ccc1OC(F)F | inactive: 13.2% |
| O=C(NCC1(N2CCOCC2)CCCCC1)c1cc(=O)[nH]c2ccccc12 | inactive: -2.4% |
| CCCCn1nnnc1C(c1cccc2ccccc12)N1CCC(n2c(=O)[nH]c3ccccc32)CC1 (configuration not stated) | inactive: 11.8% |
| CN1CCN(CCOC(=O)C(O)(c2ccccc2)c2ccccc2)CC1 | inactive: -12.6% |
| COc1ccc(NC2CCN(C(=O)OC(C)(C)C)CC2)cc1 | inactive: 1.5% |
| CC(C)c1ccc(C(=O)NCC2(N3CCOCC3)CCCCC2)cc1 | inactive: 0.1% |
| CCCCn1nnnc1C(c1ccccc1OC(F)(F)F)N1CCC(n2c(=O)[nH]c3ccccc32)CC1 (configuration not stated) | inactive: 0.4% |
| CC(C)c1ccc(NC2CCN(C(=O)OC(C)(C)C)CC2)cc1 | inactive: 1.1% |
| COc1ccc(CN(CCCl)CCCl)cc1Cl | inactive: 0.6% |
| CN(C)c1cccc(C(=O)NCC2(N3CCCCC3)CCCCC2)c1 | inactive: -2.2% |
| COc1cc(OC)c(C(=O)NCC2(N(C)C)CCCCC2)cc1OC | inactive: 3.8% |
| CCC(c1nnnn1C(C)(C)C)N1CCC(n2c(=O)[nH]c3ccccc32)CC1 (configuration not stated) | inactive: 5.9% |
| O=C(NCC1(N2CCOCC2)CCCCC1)c1cc(F)c(F)cc1Cl | inactive: 3.4% |
| CCCCn1nnnc1C(c1ccnc2ccccc12)N1CCC(n2c(=O)[nH]c3ccccc32)CC1 (configuration not stated) | inactive: 4.8% |

| SMILES | inhibition |
| --- | --- |
| O=C(NCC1(N2CCCCC2)CCCCC1)c1cncc(Br)c1 | inactive: -3% |
| CN1CCC(Nc2cccc(F)c2)CC1 | inactive: -5% |
| COc1ccc(C(c2nnnn2C2CCCC2)N2CCC(n3c(=O)[nH]c4ccccc43)CC2)cc1 (configuration not stated) | inactive: 6.2% |
| Cc1ccc(C(=O)NCC2(N(C)C)CCCCC2)o1 | inactive: 1.2% |
| CCCOc1ccc(C(=O)NCC2(N(C)C)CCCCC2)cc1OC | inactive: -4.2% |
| COc1ccc(C(=O)NCC2(N3CCCCC3)CCCCC2)cc1 | inactive: 4.4% |
| CCC(c1nnnn1C1CCCC1)N1CCC(n2c(=O)[nH]c3ccccc32)CC1 (configuration not stated) | inactive: 10.9% |
| COc1ccc(C(=O)NCC2(N3CCCCC3)CCCCC2)c(OC)c1OC | inactive: -5.6% |
| CC(C)(C)OC(=O)N1CCC(N(C(=O)c2ccccc2)c2ccc(F)cc2)CC1 | inactive: -11.7% |
| O=C(NCC1(N2CCCCC2)CCCCC1)c1ccc(=O)[nH]c1 | inactive: -3.7% |
| CCCCn1nnnc1C(c1cccs1)N1CCC(n2c(=O)[nH]c3ccccc32)CC1 (configuration not stated) | inactive: 0.9% |
| CCCCn1nnnc1C(CC)N1CCC(n2c(=O)[nH]c3ccccc32)CC1 (configuration not stated) | inactive: 4.5% |
| O=C(NCC1(N2CCCCC2)CCCCC1)c1cccs1 | inactive: 2.9% |
| CSc1ccccc1C(=O)NCC1(N2CCCCC2)CCCCC1 | inactive: 9.9% |
| Cc1cccc(NC2(C#N)CCN(Cc3ccccc3)CC2)c1 | inactive: -2.9% |
| O=c1[nH]c2ccccc2n1C1CCN(C(c2ccccc2OC(F)(F)F)c2nnnn2C2CCCCC2)CC1 (configuration not stated) | inactive: 15.6% |
| O=C(NCC1(N2CCCCC2)CCCCC1)c1ccc(Cl)nc1 | inactive: -1.5% |
| Cc1cc(C)cc(N(C(=O)c2ccccc2)C2CCN(C(=O)OC(C)(C)C)CC2)c1 | inactive: -7.9% |
| O=C(NCC1(N2CCOCC2)CCCCC1)c1cc2ccccc2o1 | inactive: 10.5% |
| O=C(OC1CN2CCC1CC2)C1c2ccccc2Oc2ccccc21 (configuration not stated) | inactive: -28.8% |
| O=c1[nH]c2ccccc2n1C1CCN(C(c2cc3ccccc3o2)c2nnnn2C2CCCCC2)CC1 (configuration not stated) | inactive: 9.6% |
| O=C(NCC1(N2CCCCC2)CCCCC1)c1ccc(Cl)s1 | inactive: 4.2% |

| SMILES | inhibition |
| --- | --- |
| N#CC1(Nc2ccccc2)CCN(Cc2ccccc2)CC1 | inactive: 2.1% |
| COc1ccc(Cl)cc1C(=O)NCC1(N2CCOCC2)CCCCC1 | inactive: 2.2% |
| CCOC(=O)N1CCC(Nc2ccc(OC)cc2)CC1 | inactive: -1.6% |
| CCCCn1nnnc1C(c1ccc(OC)cc1)N1CCC(n2c(=O)[nH]c3ccccc32)CC1 (configuration not stated) | inactive: -1.9% |
| CC(C)(C)n1nnnc1C(c1ccccc1)N1CCC(n2c(=O)[nH]c3ccccc32)CC1 (configuration not stated) | inactive: 6.9% |
| O=C1CCN(Cc2ccccc2)CC1 | inactive: 10.1% |
| CCOc1ccc(C)cc1CN(CCCl)CCCl | inactive: -3.4% |
| O=C(NCC1(N2CCCCC2)CCCCC1)c1ccc(F)cc1 | inactive: -5.8% |
| CCCCn1nnnc1C(c1cc2ccccc2o1)N1CCC(n2c(=O)[nH]c3ccccc32)CC1 (configuration not stated) | inactive: 16.1% |
| O=P1(N(CCCl)CCCl)SCCCS1 | inactive: -4.7% |
| CCCCOc1ccc(C(=O)NCC2(N3CCOCC3)CCCCC2)cc1 | inactive: -1.6% |
| COc1ccc(NC2CCN(CCc3ccccc3)CC2)c(OC)c1 | inactive: 8% |
| CCOC(=O)N1CCC(Nc2ccc(F)cc2)CC1 | inactive: -1.7% |
| O=c1[nH]c2ccccc2n1C1CCN(C(c2ccccc2)c2nnnn2C2CCCCC2)CC1 (configuration not stated) | inactive: 15.3% |
| COc1cc(C(=O)NCC2(N(C)C)CCCCC2)ccc1OC(F)F | inactive: 3.6% |
| CCOC(=O)N1CCC(Nc2cccc(C)c2)CC1 | inactive: -5.8% |
| O=c1[nH]c2ccccc2n1C1CCN(C(c2cccc3ccccc23)c2nnnn2C2CCCC2)CC1 (configuration not stated) | inactive: 3.7% |
| CC(=O)N(c1ccccc1)C1CCNCC1 | inactive: 3% |
| COc1cccc(C(c2nnnn2C2CCCCC2)N2CCC(n3c(=O)[nH]c4ccccc43)CC2)c1OC (configuration not stated) | inactive: 9.4% |
| CCC(c1nnnn1C1CCCCC1)N1CCC(n2c(=O)[nH]c3ccccc32)CC1 (configuration not stated) | inactive: -5.4% |
| O=c1[nH]c2ccccc2n1C1CCN(C(c2ccnc3ccccc23)c2nnnn2C2CCCCC2)CC1 (configuration not stated) | inactive: 6.2% |
| COc1cc(OC)cc(C(=O)NCC2(N3CCCCC3)CCCCC2)c1 | inactive: -1.2% |

| SMILES | inhibition |
| --- | --- |
| Cc1ccc(C(=O)NCC2(N3CCCCC3)CCCCC2)o1 | inactive: 5.2% |
| Fc1ccccc1NC1CCN(Cc2ccccc2)CC1 | inactive: 3.5% |
| Cc1ccc(NC2(C#N)CCN(Cc3ccccc3)CC2)cc1 | inactive: 3.4% |
| Cc1ccccc1NC1(C#N)CCN(Cc2ccccc2)CC1 | inactive: -3.6% |
| CC(C)(C)n1nnnc1C(c1ccnc2ccccc12)N1CCC(n2c(=O)[nH]c3ccccc32)CC1 (configuration not stated) | inactive: -6.4% |
| COc1ccc(C(c2nnnn2C2CCCCC2)N2CCC(n3c(=O)[nH]c4ccccc43)CC2)cc1 (configuration not stated) | inactive: 8.9% |
| CCN1CCC(Nc2cccc(F)c2)CC1 | inactive: -6.9% |
| O=C(NCC1(N2CCCCC2)CCCCC1)c1ccco1 | inactive: 4.2% |
| Cn1c(=O)[nH]cc(N(CCCl)CCCl)c1=O | inactive: 0.4% |
| CN(C)c1ccc(C(=O)NCC2(N3CCCCC3)CCCCC2)cc1 | inactive: 4.2% |
| CCOc1ncccc1C(=O)NCC1(N2CCOCC2)CCCCC1 | inactive: -0.5% |
| CN1CCC(Nc2ccc(F)c(Cl)c2)CC1 | inactive: -1.7% |
| CC(C)(C)OC(=O)N1CCC(Nc2ccccc2)CC1 | inactive: -10.7% |
| O=C(O)C1(Nc2ccccc2)CCN(Cc2ccccc2)CC1 | inactive: -1.8% |
| CCCOc1ccc(C(=O)NCC2(N(C)C)CCCCC2)cc1 | inactive: -2.9% |
| O=c1[nH]c2ccccc2n1C1CCN(C(c2cc3ccccc3o2)c2nnnn2C2CCCC2)CC1 (configuration not stated) | inactive: 7.6% |
| COc1cc(OC)cc(C(=O)NCC2(N3CCOCC3)CCCCC2)c1 | inactive: -3% |
| COc1cccc(C(c2nnnn2C2CCCC2)N2CCC(n3c(=O)[nH]c4ccccc43)CC2)c1OC (configuration not stated) | inactive: 3.8% |
| COc1cccc(C(=O)N(c2cc(C)cc(C)c2)C2CCN(C(=O)OC(C)(C)C)CC2)c1 | inactive: -2.1% |
| CCC(CO)(C(=O)OC1CN2CCC1CC2)c1ccccc1 (configuration not stated) | inactive: 1.5% |
| CN1CCC(Nc2ccc(Cl)cc2)CC1 | inactive: -5.4% |
| CCCCn1nnnc1C(c1ccccc1)N1CCC(n2c(=O)[nH]c3ccccc32)CC1 (configuration not stated) | inactive: 11.1% |

| SMILES | inhibition |
| --- | --- |
| COc1cc(C(=O)NCC2(N3CCOCC3)CCCCC2)cc(OC)c1C | inactive: 1.3% |
| O=C(NCC1(N2CCOCC2)CCCCC1)c1cc(Br)ccc1Cl | inactive: -1.2% |
| O=c1[nH]c2ccccc2n1C1CCN(C(c2cccs2)c2nnnn2C2CCCCC2)CC1 (configuration not stated) | inactive: 14.2% |
| COc1ccc(C(=O)NCC2(N3CCOCC3)CCCCC2)cc1OC | inactive: -4.3% |
| O=c1[nH]c2ccccc2n1C1CCN(C(c2ccnc3ccccc23)c2nnnn2C2CCCC2)CC1 (configuration not stated) | inactive: 5.3% |
| COc1cccc(C(c2nnnn2C(C)(C)C)N2CCC(n3c(=O)[nH]c4ccccc43)CC2)c1OC (configuration not stated) | inactive: -8.7% |
| CCOC(=O)N1CCC(Nc2ccc(C)cc2)CC1 | inactive: -5.5% |
| N/C(=N\O)c1c(N)no[n+]1[O-] | inactive: -5% |
| O=C(OC1CN2CCC1CC2)C1c2ccccc2C=Cc2ccccc21 (configuration not stated) | inactive: 1.6% |
| O=c1[nH]c2ccccc2n1C1CCN(C(c2cccs2)c2nnnn2C2CCCC2)CC1 (configuration not stated) | inactive: 8.4% |
| CCCCn1nnnc1C(c1cccc(OC)c1OC)N1CCC(n2c(=O)[nH]c3ccccc32)CC1 (configuration not stated) | inactive: 5.3% |
| N#Cc1ccc(C(=O)NCC2(N3CCCCC3)CCCCC2)cc1 | inactive: -6.4% |
| CC(C)(C)OC(=O)N1CCC(N(C(=O)c2ccccc2)c2ccc(Cl)cc2)CC1 | inactive: 2.8% |
| CN(C)C1(CNC(=O)c2cccc(C#N)c2)CCCCC1 | inactive: -6.7% |
| c1ccc(CN2CCC(Nc3ccccc3)CC2)cc1 | inactive: 1% |
| O=c1[nH]c2ccccc2n1C1CCN(C(c2ccccc2)c2nnnn2C2CCCC2)CC1 (configuration not stated) | inactive: 4.4% |
| CCCN1CCC(Nc2cc(OC)cc(OC)c2)CC1 | inactive: -23.7% |
| Cc1cc(N(CCCl)CCCl)ccc1C=O | inactive: -2.3% |
| CC(C)(C)n1nnnc1C(c1cccc2ccccc12)N1CCC(n2c(=O)[nH]c3ccccc32)CC1 (configuration not stated) | inactive: 3.6% |
